Data as given in EP0606463B1, “NEUROMEDIN B RECEPTOR ANTAGONISTS” (The Administrators of The Tulane Educational Fund, priority 1992, dated 1994).

Sequences of proteins named here, by UniProt entry; tags and fusion partners are left off. A change or cut given only in a name is not applied to a line headed by its entry.
UniProt P52500: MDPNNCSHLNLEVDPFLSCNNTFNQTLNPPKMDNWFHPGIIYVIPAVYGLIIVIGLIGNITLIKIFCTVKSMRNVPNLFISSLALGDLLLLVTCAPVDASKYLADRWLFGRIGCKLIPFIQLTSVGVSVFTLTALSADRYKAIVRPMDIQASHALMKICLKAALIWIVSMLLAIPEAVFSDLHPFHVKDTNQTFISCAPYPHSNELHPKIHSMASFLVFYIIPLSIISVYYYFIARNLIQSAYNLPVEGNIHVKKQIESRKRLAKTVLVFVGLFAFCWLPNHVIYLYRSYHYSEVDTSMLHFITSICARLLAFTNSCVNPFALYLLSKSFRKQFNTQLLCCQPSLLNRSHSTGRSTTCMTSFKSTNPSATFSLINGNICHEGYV

Biological target: T1, GRP Receptor (Rattus norvegicus, UniProt P52500)
T1 construct: from tissue; host or cells: dispersed pancreatic acini
Assay: Amylase release from rat pancreatic acini
Assay type: cell-based

Q: `C[C@@H](O)[C@H](NC(=O)[C@@H]1CSSC[C@H](NC(=O)[C@H](N)Cc2ccc3ccccc3c2)C(=O)N[C@@H](Cc2ccccc2)C(=O)N[C@H](Cc2c[nH]c3ccccc23)C(=O)N[C@@H](CCCCN)C(=O)N[C@@H]([C@@H](C)O)C(=O)N1)C(N)=O` [Analog #18, [Phe^3, Thr^6,8]-cycle SS-octa] was tested. Which “Rat Pancreatic Acini Amylase Release Alone (10µM)” value (analog 10 µM alone, no-additive control 4 ± 1) did it give?
A: The value was 3 ± 1 % total.

Q: What about the “Rat Pancreatic Acini Amylase Release Plus Bn(0.3 nM)” value (analog 10 µM plus Bn 0.3 nM, Bn without analog 15 ± 1) of the same compound?
A: The value was 14 ± 1 % total.
